The structures appear in SMILES notation. The entries are a selection whose mix differs from that of the whole data set. The source made the active and inactive calls. No stated cut-off is given here; in the data, active means inhibition above about 30%; inactive means the rest.

A short description of this assay: yeast control strain growth suppression – counter-screen for post-Golgi transport modulator project, primary screen (AID 738). Conditions: efflux-deficient yeast background strain, growth absorbance A615, 16 h; at 10 µM; stronger effect = higher value. On the technique in general: The purpose of a counterscreen is to sort out artefacts and off-target activity.
Regarding `COP1(=S)c2c(C)nn(CCC#N)c2N=C(c2ccc(F)cc2)N1C` (stereo not given), the inhibition was inactive: -1.4%.
Regarding `O=C(COc1ccccc1)OC1CN2CCC1CC2` (stereo not given), the inhibition is inactive: 8.94%.
Take `O=C(OC1CN2CCC1CC2)C12CC3CC(CC(C3)C1)C2` (stereo not given): the inhibition was inactive: 0%.
For the molecule `CCN(CC)C(=S)SC(NC=O)C(Cl)(Cl)Cl` (stereo not given), the inhibition was inactive: 1.25%.
To `CCOP1(=S)c2c(C)nn(CCC#N)c2N=C(c2ccccc2F)N1C` (stereo not given) belongs inactive: 5.43%; to `O=P(Nc1nccs1)(c1ccccc1)c1nc2ccccc2s1` (stereo not given), inactive: 3.84%.
In the case of `CCOP1(=S)c2c(C)nn(CCC#N)c2N=C(c2ccc(F)cc2)N1C` (stereo not given), the inhibition is inactive: 2.91%.
To `O=[N+]([O-])c1ccc2c(c1)nnn2O` belongs inactive: -3.15%.
As to `Cc1cccc(OCC(=O)OC2CN3CCC2CC3)c1` (stereo not given), the inhibition was inactive: 0.14%.
To `O=P1(Nc2ccccn2)COc2ccccc2OC1` belongs inactive: 1.82%; to `Clc1n[nH]nc1-c1nn[nH][15n]1`, inactive: 0.76%; to `Cc1nn(-c2ccccc2)c2c1P(=O)(N1CCOCC1)N(C)C(c1ccccc1)=N2` (stereo not given), inactive: -0.34%.
Consider `O=P1(Nc2ncccn2)COc2ccccc2OC1`, for which the inhibition is inactive: 3.83%.
`Cc1ccc(OCC(=O)OC2CN3CCC2CC3)cc1` (stereo not given): the inhibition was inactive: 9.01%.
Regarding `O=P1(Nc2ccc(Br)cn2)COc2ccccc2OC1`, the inhibition is inactive: 1.96%.
In the case of `O=C(OC1CN2CCC1CC2)c1cccc(Cl)c1` (stereo not given), the inhibition was inactive: 12.4%.
To `O=P(Nc1nccs1)(c1ccccc1)c1ccccc1` belongs inactive: 1.4%.
In the case of `c1nnnn1CCn1cnnn1`, the inhibition is inactive: 8.54%.
As to `O=P1(Nc2nc3ccc(Cl)cc3s2)COc2ccccc2O1` (stereo not given), the inhibition was inactive: -12.4%.
To `CCOC(=O)NC(Sc1ccccc1)C(Cl)(Cl)Cl` (stereo not given) belongs inactive: -15.6%.
On to `CCC(=O)N1C2C3N(C(=O)CC)C1C1N(C(=O)CC)C(C(N1C(=O)CC)N3C(=O)CC)N2C(=O)CC`, for which the inhibition is inactive: -7.15%.
For the molecule `COC(=O)c1cc2c(s1)N=C(c1ccccc1)N(C)P2(=O)N1CCOCC1` (stereo not given), the inhibition was inactive: 1.07%.
Turning to `CCOP(=O)(Nc1ccccc1)OCC`, the inhibition is inactive: 6.56%.
Turning to `Oc1ccccc1CNc1ccccn1`, the inhibition is inactive: 6.52%.
As to `Cc1c2non([O-])c-2c(C)[n+](=O)[n+]1[O-]`, the inhibition is inactive: -0.97%.
With `CC(C)CC(=O)NC(Sc1ccc(Cl)cc1)C(Cl)(Cl)Cl` (stereo not given), the inhibition was inactive: 8.29%.
Turning to `CCc1nc2c(n1)c1c(non1O)c1c2no[n+]1[O-]`, the inhibition is inactive: -2.56%.
Take `CC(=O)N1C2C3N(C(C)=O)C1C1N(C(C)=O)C(C(N1C(C)=O)N3C(C)=O)N2C(C)=O`: the inhibition is inactive: 6.54%.
To `O=[N+]([O-])c1cccc2n[nH]nc12` belongs inactive: 9.19%; to `CC1CCN(C(=O)Oc2c(Cl)cc(Cl)c3cccnc23)CC1`, active: 32.3%.

For orientation: inhibition means the relative decrease from the control value, in per cent.

The record behind these values is PubChem BioAssay AID738 (SRMLSC, 2007).
